Measurements taken from patent EP4768477A1 (Yichang Humanwell Pharmaceutical Co., Ltd., priority 2024, dated 2025).

Amino acid sequences for entries named in this document (tags omitted). A change or cut given only in a name is not applied to a line headed by its entry.
UniProt P41146: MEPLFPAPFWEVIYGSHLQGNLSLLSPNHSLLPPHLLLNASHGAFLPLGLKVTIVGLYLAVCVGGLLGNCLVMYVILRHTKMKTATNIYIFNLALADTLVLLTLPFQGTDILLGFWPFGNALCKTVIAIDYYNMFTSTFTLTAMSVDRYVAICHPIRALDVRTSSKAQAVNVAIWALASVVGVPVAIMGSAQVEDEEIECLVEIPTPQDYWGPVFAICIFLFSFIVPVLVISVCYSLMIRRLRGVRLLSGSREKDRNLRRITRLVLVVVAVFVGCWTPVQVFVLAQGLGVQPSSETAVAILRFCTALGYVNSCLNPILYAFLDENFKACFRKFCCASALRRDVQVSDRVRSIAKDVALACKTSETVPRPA

Molecular target: hNOPr (ORL-1 receptor) (Homo sapiens, UniProt P41146)
Conditions: cAMP, 293-NOPr cells, forskolin

Nociceptin
hNOPr (ORL-1 receptor) Emax (%): 96.94%
